Data as given in patent US9346794B1, “Substituted 4-pyridones and their use as inhibitors of neutrophil elastase activity” (Boehringer Ingelheim International GmbH, priority 2012, dated 2016).

Chains of the proteins cited; added tags and fusions are not shown. Residues count along the entry.
UniProt P08246, 30-247 limits assumed: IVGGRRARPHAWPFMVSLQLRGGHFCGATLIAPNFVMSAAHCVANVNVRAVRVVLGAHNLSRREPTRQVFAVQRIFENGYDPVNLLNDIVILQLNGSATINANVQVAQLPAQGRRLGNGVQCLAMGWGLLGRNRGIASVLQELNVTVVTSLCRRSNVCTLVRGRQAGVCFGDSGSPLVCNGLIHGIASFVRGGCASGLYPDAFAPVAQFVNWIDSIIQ

Molecular target: Human neutrophil elastase (Homo sapiens (Human), UniProt P08246)
Test: Human Neutrophil Elastase Assay
Conditions: substrate MeOSuc-Ala-Ala-Pro-Val-AMC 250 μM, fluorescence, pH 7.5

CCn1cc(C(=O)NCc2ccc(S(C)(=O)=NC#N)cc2)c(=O)c(-c2cccc(C(F)F)c2)c1C (single isomer, unassigned) [5.5A] was tested, and the IC50 was 5 nM.

Compound CCn1cc(C(=O)NCc2ccc(S(C)(=O)=NC#N)cc2)c(=O)c(-c2cccc(C(F)F)c2)c1C (single isomer, unassigned) [5.5B] has an IC50 of 2.7 nM.
